# Experimental data from ChEMBL document CHEMBL1131394, “Design and synthesis of N-alkylated saccharins as selective alpha-1a adrenergic receptor antagonists” (Bioorg Med Chem Lett, 1998).
# How the values were obtained:
# [1] = target: T1, Alpha-1A adrenergic receptor (Rattus norvegicus) (UniProt P43140); assay: In vitro affinity for Alpha-1a adrenergic receptor in isolated rat aorta preparations was determined by functional assay; type: tissue-based
# T1 sequence (whole entry): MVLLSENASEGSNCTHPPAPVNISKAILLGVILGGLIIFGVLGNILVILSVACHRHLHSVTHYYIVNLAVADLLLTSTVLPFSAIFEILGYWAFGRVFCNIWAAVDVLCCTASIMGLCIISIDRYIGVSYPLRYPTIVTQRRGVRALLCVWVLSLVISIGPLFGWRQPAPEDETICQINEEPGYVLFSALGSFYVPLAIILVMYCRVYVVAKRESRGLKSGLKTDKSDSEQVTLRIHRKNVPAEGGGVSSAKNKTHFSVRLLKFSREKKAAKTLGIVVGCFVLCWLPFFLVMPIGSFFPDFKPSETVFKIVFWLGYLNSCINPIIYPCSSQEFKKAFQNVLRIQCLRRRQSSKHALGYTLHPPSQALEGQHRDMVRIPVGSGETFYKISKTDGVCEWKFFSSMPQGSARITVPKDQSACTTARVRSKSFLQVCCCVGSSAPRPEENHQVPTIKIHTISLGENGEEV
# [2] = target: T1, Alpha-1A adrenergic receptor (Rattus norvegicus); assay: In vitro affinity for Alpha-1a adrenergic receptor in isolated rat prostate tissue preparations was determined by functional assay; type: tissue-based; settings: Prostate gland
structure (smiles),measurement,setting,value
COc1cc2nc(N3CCN(C(=O)C4CCCO4)CC3)nc(N)c2cc1OC (configuration not stated) [TERAZOSIN],Kb,[1],19 nM
same,Kb,[2],27 nM
